## Antibody variant affinities, Ab-14 heavy chain, assay B

Antigen: PDVDLGDISGINAS, a 14-residue peptide of the SARS-CoV-2 spike HR2 region.

Parent: Ab-14, a human scFv built as VH, three GGGGS repeats, VL. Only the CDRs of the heavy chain vary.
VH: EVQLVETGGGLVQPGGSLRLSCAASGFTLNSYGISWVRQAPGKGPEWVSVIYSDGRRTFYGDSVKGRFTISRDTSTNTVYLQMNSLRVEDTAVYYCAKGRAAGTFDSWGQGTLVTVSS
VL: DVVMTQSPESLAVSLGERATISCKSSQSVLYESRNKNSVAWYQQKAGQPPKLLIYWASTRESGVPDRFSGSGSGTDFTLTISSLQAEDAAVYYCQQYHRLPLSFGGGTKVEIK

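Designed CDR sequences, proposed from the first random library and measured here. Their group label is 14H_En_HC (En: ensemble of fine-tuned language models; HC: hill climbing; a sequence that several methods proposed may carry one label only). The scFvs were displayed on barcoded MATa yeast, the peptide on MATalpha yeast. Binding brings cells together so that they mate, and sequencing counts the barcode pairs among the diploids. A regression on co-assayed BCL2-family reference pairs converts the normalised counts of each replicate to an apparent Kd. There are six technical replicates.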

Variants are written as CDR1, CDR2 and CDR3 of the heavy chain (limits as in the source). Parent: GFTLNSYGIS, VIYSDGRRTFYGDSVK, GRAAGTFDS.
Values are log10 of the apparent Kd in nM; lower means stronger binding.
Where no diploid with the target was found in that replicate, the entry reads "n.d.": below detection, most likely a poor binder, though not proof of it.
The authors' rule: three or more of the six replicates give a measured affinity, fewer mean a poor binder.

CDR-H1 | CDR-H2 | CDR-H3 | log10 Kd (nM) by replicate | control signals
GFDLNEYGIS | VIYADGRRTAYIDSVK | GNQAGTFDL | -0.17 / -0.41 / -0.85 / -0.60 / -0.62 / -0.63 | 0 of 18
GFDLNEYGIS | VIYADGQRTFYADSVK | GEAGGTFDV | 0.29 / 0.38 / 0.11 / -0.06 / -0.14 / 0.28 | 0 of 18
GFDLNEYGIS | VIYADGMRTFYADSVK | GQIAGTFDV | -1.26 / -0.46 / -1.27 / -1.04 / -0.97 / -1.75 | 0 of 18
GFDLNEYGIS | VIYADGRRTFYSDSVK | GTAAGTFDQ | 0.81 / 0.21 / -0.30 / -0.64 / -0.44 / 0.49 | 0 of 18
GFDLDEYGIS | VIYADGRRTFYADSVK | GELAGTFDV | -0.51 / -0.60 / -0.39 / -0.27 / -0.47 / -0.64 | 0 of 18
GFDLNEYGIS | VIYADGRRTAYSDSVK | GEMAGTFDS | -0.34 / -0.42 / -0.50 / -0.62 / -0.54 / -0.37 | 1 of 18 (2.12)
GFNLDEYGIS | VIYADGRRTFYADSVK | GQVAGTFDI | -0.45 / -0.81 / -0.65 / -1.39 / -0.66 / -0.80 | 0 of 18
GFDLNEYGIS | VIYADGRRTQYIDSVK | GNQAGTFDV | 0.01 / -0.49 / -0.10 / -0.39 / -0.26 / -0.07 | 0 of 18
GFDLNEYGIS | VIYADGLRTSYADSVK | GQLAGTFDM | 0.31 / 0.38 / -0.71 / -0.56 / -0.32 / 0.11 | 0 of 18
GFDLDEYGIS | VIYADGMRTFYQDSVK | GQNAGTFDQ | 1.00 / 0.99 / 0.30 / 0.14 / -0.19 / 0.62 | 0 of 18
GFNLDEYGIS | VIYADGKRTFYADSVK | GQVAGTFDV | -0.58 / -0.75 / -0.69 / -0.84 / -0.81 / -0.64 | 1 of 18 (3.90)
GFDLNEYGIS | VIYADGRRTFYSDSVK | GAVAGTFDM | -0.19 / -0.73 / -0.51 / -0.75 / -0.50 / -0.50 | 0 of 18
GFDLNEYGIS | VIYADGMRTFYTDSVK | GEVAGTFDL | -0.03 / -0.45 / -0.42 / -0.95 / -0.78 / -0.60 | 0 of 18
GFDLNEYGIS | VIYADGMRTQYIDSVK | GNEAGTFDS | 0.46 / 0.74 / 0.37 / 0.24 / 0.49 / 1.22 | 0 of 18
GFDLNEYGIS | VIYADGKRTAYTDSVK | GEAAGTFDL | -0.18 / -0.34 / -0.42 / -0.45 / -0.61 / -0.44 | 1 of 18 (2.24)
GFDLNEYGIS | VIYADGKRTFYADSVK | GKNAGTFLV | -0.17 / -0.23 / -0.39 / -0.35 / -0.35 / 0.06 | 0 of 18
GFDLNEYGIS | VIYADGMRTQYIDSVK | GNNAGTFDV | -0.34 / n.d. / -1.18 / -0.93 / n.d. / -0.45 | 0 of 18
GFDLNEYGIS | VIYADGRRTAYADSVK | GEAAGTFDN | -0.35 / 0.78 / 0.74 / -0.39 / -0.04 / -0.69 | 0 of 18
GFDLNEYGIS | VIYADGKRTAYIDSVK | GHAAGTFDV | -0.26 / -0.72 / -0.53 / -0.33 / -0.66 / -0.37 | 0 of 18
GFDINEYGIS | VIYADGRRTSYADSVK | GQNAGTFDV | -0.60 / -0.59 / -0.84 / -0.67 / -0.72 / 0.02 | 0 of 18
GFDLNDYGIS | VIYADGRRTFYADSVK | GEHAGTFDI | n.d. / n.d. / n.d. / n.d. / n.d. / n.d. | 0 of 18
GFDLDEYGIS | VIYADGRRTFYADSVK | GNVAGTFDT | 0.18 / -0.04 / -0.36 / -0.62 / -0.74 / 0.54 | 0 of 18
GFNLNEYGIS | VIYADGRRTFYTDDVK | GEIAGTFDL | -0.34 / -0.65 / -0.97 / -0.58 / -0.80 / -0.75 | 0 of 18
GFDLNEYGIS | VIYADGRRTFYTDSVK | GEFAGTFDM | -0.72 / -0.54 / -0.89 / -1.19 / -1.01 / -1.00 | 0 of 18
GFDLNEYGIS | VIYADGSRTAYSDSVK | GQTAGTFDV | -0.20 / -0.34 / -1.14 / -0.55 / -0.47 / -0.54 | 0 of 18
GFDLESYGIS | VIYADGRRTFYSDSVK | GDNAGTFDI | -0.11 / 0.07 / 0.11 / -0.17 / 0.06 / 0.03 | 0 of 18
GFDLNEYGIS | VIYADGRRTFYSDSVK | GQTGGTFDV | n.d. / n.d. / n.d. / n.d. / n.d. / n.d. | 0 of 18
GFDLDEYGIS | VIYADGRRTFYADDVK | GNVAGTFDV | -0.28 / -0.27 / -0.55 / -0.80 / -0.49 / -0.57 | 0 of 18
GFDLNEYGIS | VIYADGRRTAYHDSVK | GTNAGTFDQ | 0.57 / -0.13 / 0.24 / 0.57 / 0.56 / 0.28 | 0 of 18
GFDLNEYGIS | VIYADGQRTAYTDSVK | GANAGTFDQ | 0.11 / 0.10 / 0.06 / -0.35 / -0.18 / -0.03 | 0 of 18

Extract of 5 entries:

CDR-H1 | CDR-H2 | CDR-H3 | log10 Kd (nM) by replicate | control signals
GFDLNEYGIS | VIYADGMRTQYIDSVK | GNEAGTFDS | 0.46 / 0.74 / 0.37 / 0.24 / 0.49 / 1.22 | 0 of 18
GFDLNEYGIS | VIYADGRRTQYIDSVK | GNQAGTFDV | 0.01 / -0.49 / -0.10 / -0.39 / -0.26 / -0.07 | 0 of 18
GFDLNEYGIS | VIYADGLRTSYADSVK | GQLAGTFDM | 0.31 / 0.38 / -0.71 / -0.56 / -0.32 / 0.11 | 0 of 18
GFDLDEYGIS | VIYADGRRTFYADDVK | GNVAGTFDV | -0.28 / -0.27 / -0.55 / -0.80 / -0.49 / -0.57 | 0 of 18
GFDLNEYGIS | VIYADGRRTAYIDSVK | GNQAGTFDL | -0.17 / -0.41 / -0.85 / -0.60 / -0.62 / -0.63 | 0 of 18

Of ten entries with the parent sequence, four were seen in most replicates (averages 0.34 to 2.37), three in one and three in none, so single entries are noisy.
Nonspecific signal, from three strains lacking the peptide, appeared in 1% of pairings of all heavy chain designs, centred on 2.08 (5% of these signals below 0.84); values are not corrected for it. Also given: how often the same scFv was detected with the empty control strains, with their mean in brackets.
Values of this round are not directly comparable with the first-round values of the same sequences.

From the AlphaSeq antibody data of Li et al. 2023 (doi:10.1038/s41467-023-39022-2), copy in the FLAb collection.